The target in the assay is T1, human μ opioid receptor (Homo sapiens, UniProt P35372).
T1 construct: expressed in transfected cells
As to the kind of experiment: biochemical. The assay is classed as binding. Particulars: [3H]DAMGO (μ).

By UniProt entry, the sequences of proteins in these tests, tags left out.
UniProt P35372, whole entry: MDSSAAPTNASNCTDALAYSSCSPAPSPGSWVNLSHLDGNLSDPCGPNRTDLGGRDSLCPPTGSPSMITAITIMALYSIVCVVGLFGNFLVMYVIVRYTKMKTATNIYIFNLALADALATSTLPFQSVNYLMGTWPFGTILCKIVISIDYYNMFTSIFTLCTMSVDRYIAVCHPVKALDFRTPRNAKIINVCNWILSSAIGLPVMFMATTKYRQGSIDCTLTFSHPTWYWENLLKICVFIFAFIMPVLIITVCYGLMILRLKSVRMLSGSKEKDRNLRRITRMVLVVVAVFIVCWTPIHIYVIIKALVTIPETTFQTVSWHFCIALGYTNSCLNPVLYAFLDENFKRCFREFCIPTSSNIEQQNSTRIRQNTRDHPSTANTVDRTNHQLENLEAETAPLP

Structures are written as SMILES.

With `Oc1ccc2c3c1O[C@H]1c4[nH]c5ccccc5c4C[C@@]4(O)[C@@H](C2)N(CC2CC2)CC[C@]314` [Example 72, naltrindole, reference compound], the Ki (commonly the dissociation constant of the complex between target and ligand, obtained from inhibition or displacement) was 13 ± 1.1 nM.

The values above are taken from patent publication US8026252B2 (priority 2005, dated 2011).
